One substance from patent US9757330B2, “Recipe for in-situ gel, and implant, drug delivery system formed thereby” (INDUSTRIAL TECHNOLOGY RESEARCH INSTITUTE, priority 2013, dated 2017) can be followed below.

For the data set the following is noted: agarose/urea in-situ hydrogel, 5 ml PBS, on the 14 day.

For bovine serum albumin [BSA], the “release of BSA from the in-situ hydrogel” value is 79%.
